## AlphaSeq binding of Ab-14 light chain variants to a spike HR2 peptide

Reference: Li et al. 2023, doi:10.1038/s41467-023-39022-2. File: FLAb, binding data.

All variants were tested on one target, the spike HR2 peptide PDVDLGDISGINAS (SARS-CoV-2).

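The parent was found by panning a naive human phage display library on the peptide. The variants were designed computationally from a first round of random CDR variants and then made and measured. Several design methods are mixed in this list. Affinity was read by AlphaSeq, a pooled yeast mating assay with surface-displayed partners. Pairs that bind mate more often; barcode pairs of the diploids are counted by sequencing. Read counts were normalised to the haploid input and turned into Kd by a linear fit to BCL2-family pairs of known affinity, for each replicate. There are six technical replicates.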

Parent: Ab-14, a human scFv built as VH, three GGGGS repeats, VL. Only the CDRs of the light chain vary.
VH: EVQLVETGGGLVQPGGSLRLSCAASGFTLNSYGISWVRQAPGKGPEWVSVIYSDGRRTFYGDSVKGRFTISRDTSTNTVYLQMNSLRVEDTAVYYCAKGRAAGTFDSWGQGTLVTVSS
VL: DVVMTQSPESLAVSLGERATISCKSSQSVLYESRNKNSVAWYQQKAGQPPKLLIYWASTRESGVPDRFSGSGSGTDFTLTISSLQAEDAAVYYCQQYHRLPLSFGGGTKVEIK

Each variant is given by its three light chain CDRs, as the data file delimits them; those of the parent are KSSQSVLYESRNKNSVA, WASTRES, QQYHRLPLS. Each Kd is an estimate from the mating assay, the geometric mean of the replicates in which the pair was seen; lower is stronger. An entry "nd" has no value in the source: the pair was not observed among the diploids in any replicate. This suggests poor binding but is not conclusive. In the paper, a design with two or fewer of six values counts as a poor binder.

Kd (apparent) | replicates with signal | CDR-L1 | CDR-L2 | CDR-L3
350 nM | 3/6 | KISWSVLGESSNKNSVA | WASTRES | QQYHRVPLS
880 pM | 6/6 | KLEQSHLYMSRNANSVA | NASTRMS | QQYHRLPLS
4.6 nM | 6/6 | TISQMTSSFSMNINNVA | EVSTRCK | QQYDRLPLS
900 pM | 6/6 | KLSFSTEMEHVNRNSVA | ELVTRMS | QQYNRLPLS
2.1 nM | 6/6 | KLSQSALYESRNKNSVA | NASQRES | QQYHRLPLS
480 pM | 6/6 | KLQQSWEYESRNSNNVA | MGSTRED | QQYHRLPLS
2.0 nM | 6/6 | KASQSVIYESRNKNSVA | AASTRES | QQYSRLPLS
370 pM | 6/6 | KQSQQPLYESRNKNSVA | DASTRES | QQYHRLPLS
3.7 nM | 6/6 | KISQSVPYEDRNFNSVA | NASYRCS | QQYHRLPLS
1.8 nM | 6/6 | KLSQSVLYESRNKNNVA | DASTREQ | QQYHRLPLS
1.6 nM | 6/6 | KISQSWLYEDRVKNSVA | GASTRES | QQYHRLPLS
13 nM | 6/6 | KLQQSDLYESRNKNSVA | GASQRES | QQYHRLPLS
4.1 nM | 6/6 | KMDQWVDYGDRWKNSVA | NASTRES | QQYHRLPLS
11 nM | 6/6 | KFSQEVMMGDRNKNSVA | KASTRLS | QQYHRLPLS
760 pM | 6/6 | MISQLYNMGQFAINSVA | QASTRME | QQYHRLPLM
11 nM | 6/6 | WLENDQFIESHKNNSVA | QGTMREA | QQYMRLPLA
490 pM | 6/6 | KLSQSVLYESRNKNSVA | EAKTRES | QQYHRLPLS
180 nM | 4/6 | KQSQSVPQGERNKNSVA | MASYRLS | QQYHRLPLS
1.7 nM | 6/6 | KSLQSVLYESRNKNSVA | HASTRED | QQYHRLPLS
nd | 0/6 | KSSQSVLYNSRNKGSVA | KASTRES | QQYHRLPLS
1.2 nM | 6/6 | KLQQSEGYESRNKNSVA | NASTRES | QQYHRLPLS
1.2 nM | 6/6 | KFQWSWLYESRNKNSVA | NASTRES | QQYWRLPLS
2.5 nM | 6/6 | KVSNQADYEDRNKNSVA | SASTRES | QQYHRLPLS
1.1 nM | 6/6 | KLMQEWLYESRLANSVA | NASQRLE | QQYHRLPLS
6.2 nM | 6/6 | MLSDLVKMGVRETNSVA | DNSTRGS | QQYDRLPLS
6.2 nM | 6/6 | KWSQSWLYESRNKNSVA | GASTQES | QQYHRLPLS
1.7 nM | 6/6 | KLSMEVLMEQRNHNSVA | SANTREE | QQYHRLPLS
500 pM | 6/6 | KLEQGDLMESRNKNSVA | HASERES | QQYHRLPLS
23 nM | 4/6 | MISQLYNMGQFAINSVA | QAQTRNE | QQYDRLPLM
1.8 nM | 6/6 | KARQSNLYEDRNQNSVA | SASQRLT | QQYHRLPLS
3.6 nM | 6/6 | MLGDTTMQGMYSRNSVA | QESTRAE | QQYHHLPLS
11 nM | 6/6 | TLGQVTMVESYNKDSVA | QASTRLE | QDYHRLPLS
nd | 0/6 | KSSQSVLYESRNFNSVA | WASTRES | QQYHRLPLS
110 nM | 6/6 | KISQLVNFLGKEKNSVA | QMSTRES | QQYDRLPLS
800 pM | 6/6 | KSSQSELGESRNKNSVA | DASTRES | QQYWRLPLS
300 nM | 3/6 | NFSEQQKTDREQQYSIA | GMDIREK | QQYGRLPLT
650 pM | 6/6 | KFSQKVLYESRTKNSVA | NASTRES | QQYHRLPLS
120 nM | 5/6 | KISMSYRYESEAKNSIA | EMTTREE | QSYHRLPLS
17 nM | 1/6 | MLSEVLHMLGVKKNSIA | DLVLRAN | QQYHRLPLM
1.2 nM | 6/6 | KLMQSVLYESRNKNSVA | NASTRMS | QQYHRLPLS
4.6 nM | 6/6 | ALSQSMDMTSRNVNSVA | DLTCREN | QQYHRLPLS
2.9 nM | 6/6 | KSSWSVLFESRNKNSVA | DASTRSQ | QQYHRLPLS
nd | 0/6 | KSSQSVLYQSRNKNGVA | KASTRES | QQDHRLPLS
2.0 nM | 6/6 | HSSPSVLYESRNLNSVA | NASTRES | QQYHRLPLS
68 nM | 2/6 | QLLMATMQGTYNRNSVA | HAETREN | QSYHRLPLS
1.7 nM | 6/6 | KSSQSVKFESRNKNSVA | DASTREY | QQYHRLPLS
nd | 0/6 | KLGMWMYGPTEAKYAVA | QDEMRVH | QQYDRLPLI
nd | 0/6 | KFDFQMPELNYQDNSIA | GMTVSIE | QQYFRLPLT
35 nM | 3/6 | ILNLSPMGHQIHMDAIA | QEAIRNA | QQYARLPLS
9.4 nM | 6/6 | KHQGSELYEERNDNSVA | QASQRES | QDYHRLPLS
1.9 nM | 6/6 | SLELFEYQIMKDLNNIA | NTNTRVN | QQYMRLPFM
800 nM | 1/6 | KSDTIVWYESRNKNSVA | WASTRES | QQYHRLPLS
390 pM | 6/6 | KLSQSVLYLSRNKNSVA | DASTRES | QQYHRLPLS
nd | 0/6 | KSSQSVLYESRYKNDVA | WASERES | QQYHRLPLS
490 pM | 6/6 | KFSDSVLLWSRTKNSVA | NASTRES | QQYHRLPLS
33 nM | 6/6 | HVMHEQLDYKNRENNIA | HESMRLH | QQYSQLPIT
1.3 nM | 6/6 | KYSFSELYESRNQNSVA | EASQREE | QQYHRLPLS

Top 5 of the variants detected in all replicates, tightest first:

CDR-L1 | CDR-L2 | CDR-L3 | Kd (apparent) | replicates with signal
KQSQQPLYESRNKNSVA | DASTRES | QQYHRLPLS | 370 pM | 6/6
KLSQSVLYLSRNKNSVA | DASTRES | QQYHRLPLS | 390 pM | 6/6
KLQQSWEYESRNSNNVA | MGSTRED | QQYHRLPLS | 480 pM | 6/6
KFSDSVLLWSRTKNSVA | NASTRES | QQYHRLPLS | 490 pM | 6/6
KLSQSVLYESRNKNSVA | EAKTRES | QQYHRLPLS | 490 pM | 6/6

A sequence measured in both rounds can read differently, since the two assays cover different ranges. The parent sequence was in this pool as ten entries: three were never detected, three once, and four in most replicates, with averages from 2.2 nM to 240 nM. Nonspecific signal, from three strains lacking the peptide, appeared in 4% of pairings of all light chain designs, centred on 430 nM (5% of these signals below 38 nM); values are not corrected for it.